Experimental data taken from patent US9156822B2, “Functionally selective ligands of dopamine D2 receptors” (The University of North Carolina at Chapel Hill, priority 2010, dated 2015).
Like-named read-outs stand apart in the source and are kept apart here. Blank lines part the entries; values can stand above or below the molecule they belong to.

Protein sequences, listed by entry. Tags and fused reporters are not part of them.
UniProt P14416, whole entry: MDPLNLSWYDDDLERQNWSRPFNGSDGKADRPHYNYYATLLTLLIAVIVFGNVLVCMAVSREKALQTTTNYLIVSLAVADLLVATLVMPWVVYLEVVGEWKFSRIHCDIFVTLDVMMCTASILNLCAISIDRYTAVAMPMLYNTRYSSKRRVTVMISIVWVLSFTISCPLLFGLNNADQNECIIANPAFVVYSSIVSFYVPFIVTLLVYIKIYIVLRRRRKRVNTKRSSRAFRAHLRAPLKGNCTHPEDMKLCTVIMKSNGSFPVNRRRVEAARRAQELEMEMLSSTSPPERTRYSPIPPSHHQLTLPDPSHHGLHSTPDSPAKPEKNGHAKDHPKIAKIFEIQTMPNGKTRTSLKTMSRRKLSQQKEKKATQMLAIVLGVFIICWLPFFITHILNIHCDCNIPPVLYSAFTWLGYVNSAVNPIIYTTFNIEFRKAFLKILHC

Assays:
in vivo = conditions: mouse
[1] = test system: wild-type and β-arrestin-2 knockout mice; conditions: i.p., 5.0 mg/kg (haloperidol 2.0 mg/kg), 30 and 60 min
hD2L dopamine receptor = hD2L dopamine receptor (Homo sapiens (Human), UniProt P14416); test: pERK high-content assay; type: cell-based; conditions: normalized to dopamine; read-out: p-ERK Emax
D2 receptors [2] = biological target: T1, D2 receptors (Homo sapiens (Human), UniProt P14416); test: D2 β-arrestin recruitment (Tango) assay; type: cell-based; conditions: for EC50: HTLA cells; for Emax: normalized to quinpirole (100%)
D2 receptors [3] = biological target: T1, D2 receptors; conditions: read-out: D2 Binding Ki ± SEM
hD2 receptors = hD2 receptors (Homo sapiens (Human), UniProt P14416); test: D2 mediated cAMP GloSensor assay; conditions: for EC50: read-out: cAMP (GloSensor) EC50; for Emax: read-out: cAMP (GloSensor) Emax; on cAMP (GloSensor) activity in words (merged EC50/Emax cell): key: neutral: Neutral ligands are either antagonists or are inactive
[4] = HEK293T, isoproterenol-stimulated cAMP

concentration at 0.08 h (in vivo; brain): 88.8 ng/g
concentration at 0.5 h (in vivo; brain): 166 ng/g
concentration at 1 h (in vivo; brain): 134 ng/g
concentration at 2 h (in vivo; brain): 115 ng/g
concentration at 4 h (in vivo; brain): 75.8 ng/g
concentration at 8 h (in vivo; brain): 42.2 ng/g
concentration at 24 h (in vivo; brain): 8.8 ng/g
concentration at 0.08 h (in vivo; plasma): 53.3 ng/mL
concentration at 1 h (in vivo; plasma): 68 ng/mL
concentration at 2 h (in vivo; plasma): 49.8 ng/mL
concentration at 4 h (in vivo; plasma): 31.8 ng/mL
concentration at 8 h (in vivo; plasma): 14.5 ng/mL
concentration at 24 h (in vivo; plasma): 2 ng/mL
Compound: O=C1CCc2ccc(OCCCCN3CCN(c4cccc(Cl)c4Cl)CC3)cc2N1 [Aripiprazole, aripiprazole, reference compound]
catalepsy (latency to move, inclined screen test) [1]: do not induce catalepsy

Compound: O=C1NCCc2ccc(OCCCCN3CCCN(c4cccc(Cl)c4Cl)CC3)cc21 [Compound 6, 7-(4-(4-(2,3-dichlorophenyl)-1,4-diazepan-1-yl)butoxy)-3,4-dihydroisoquinolin-1(2H)-one]
Emax (hD2L dopamine receptor): < 5%
β-arrestin (Tango) % activ at 1 μM (D2 receptors [2]): 7%
EC50 (D2 receptors [2]): 6.2 nM
Emax (D2 receptors [2]): 32%
Ki (D2 receptors [3]): 4.6 ± 0.6 nM
EC50 (hD2 receptors): 9870 nM
Emax (hD2 receptors): -76%

Compound: Clc1cccc(N2CCCN(CCCCOc3ccc4scnc4c3)CC2)c1Cl [Compound 7, 5-(4-(4-(2,3-dichlorophenyl)-1,4-diazepan-1-yl)butoxy)benzo[d]thiazole]
β-arrestin (Tango) % activ at 1 μM (D2 receptors [2]): 4%
EC50 (D2 receptors [2]): 23 nM
Emax (D2 receptors [2]): 38%
Ki (D2 receptors [3]): 18 ± 2 nM
cAMP (GloSensor) activity in words (merged EC50/Emax cell) (hD2 receptors): neutral

Compound: COc1ccccc1N1CCCN(CCCCOc2ccc3ccc(=O)[nH]c3c2)CC1 [Compound 10, 7-(4-(4-(2-methoxyphenyl)-1,4-diazepan-1-yl)butoxy)quinolin-2(1H)-one]
EC50 (hD2 receptors; [4]): 306 nM
Emax (hD2 receptors): -98%

Compound: CCOc1ccccc1N1CCCN(CCCCOc2ccc3ccc(=O)[nH]c3c2)CC1 [Compound 14, 7-(4-(4-(2-ethoxyphenyl)-1,4-diazepan-1-yl)butoxy)quinolin-2(1H)-one]
EC50 (hD2 receptors; [4]): 27 nM
Emax (hD2 receptors): 16%

Compound: O=c1[nH]c2ccc(OCCCCN3CCC(c4cccc(Cl)c4Cl)CC3)cc2[nH]1 [Compound 24, 5-(4-(4-(2,3-dichlorophenyl)piperidin-1-yl)butoxy)-1H-benzo[d]imidazol-2(3H)-one]
Ki (D2 receptors [3]): 10.9 ± 0.3 nM

Compound: O=c1ccc2ccc(OCCCCN3CCN(c4cccc5c4OCCO5)CC3)cc2[nH]1 [Compound 42, 7-(4-(4-(2,3-dihydrobenzo[b][1,4]dioxin-5-yl)piperazin-1-yl)butoxy)quinolin-2(1H)-one]
EC50 (D2 receptors [2]): 0.9 nM
Emax (D2 receptors [2]): 31%
Ki (D2 receptors [3]): 0.4 ± 0.02 nM
cAMP (GloSensor) activity in words (merged EC50/Emax cell) (hD2 receptors): neutral
